Data as given in PMC7858072 (mBio, 2021).

Target: T1, FhtR (MBP-FhtR) (Enterococcus faecalis, UniProt A0ACD6T9Y8)
T1 construct: gene OG1RF_10525
Settings: MBP fusion; 1:1 stoichiometry by absorbance at 407 nm; non-covalent, ferric high-spin pentacoordinate

Q: For C=CC1=C(C)C2=Cc3c(C=C)c(C)c4[n]3[Fe]([Cl])[n]3c(c(C)c(CCC(=O)O)c3=CC3=NC(=C4)C(C)=C3CCC(=O)O)=CC1=N2 [hemin], which Kd is on record?
A: Its Kd is 310 nM.
